Experimental data taken from paper PMC2640231 (Journal of molecular biology, 2008).

Target: T1, Spc25p (yeast, UniProt P40014 1-221)
T1 sequence (looked up): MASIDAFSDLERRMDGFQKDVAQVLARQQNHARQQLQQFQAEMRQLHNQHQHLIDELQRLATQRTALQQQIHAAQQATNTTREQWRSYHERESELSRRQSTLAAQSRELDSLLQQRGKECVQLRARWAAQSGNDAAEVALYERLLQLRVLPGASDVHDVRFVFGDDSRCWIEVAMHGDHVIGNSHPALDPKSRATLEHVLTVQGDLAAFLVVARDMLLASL
Assay: pull-down + SEC

binding result: binds
B1: Spc24p (natural protein, yeast, UniProt Q04477 1-213, looked up)
chain: MSQKDNLLDNPVEFLKEVRESFDIQQDVDAMKRIRHDLDVIKEESEARISKEHSKVSESNKKLNAERINVAKLEGDLEYTNEESNEFGSKDELVKLLKDLDGLERNIVSLRSELDEKMKLYLKDSEIISTPNGSKIKAKVIEPELEEQSAVTPEANENILKLKLYRSLGVILDLENDQVLINRKNDGNIDILPLDNNLSDFYKTKYIWERLGK
